According to ChEMBL document CHEMBL5579887, “Structure-Activity Relationship Studies of Substituted 2-Phenyl-1,2,4-triazine-3,5(2H,4H)-dione Analogues: Development of Potent eEF2K Degraders against Triple-Negative Breast Cancer” (J Med Chem, 2024):
In brackets after ≈: the same amount, converted by molar mass.

Columns and labels:
MDA-MB-231 [1] = assay: cells; settings: Homo sapiens, MDA-MB-231, 72 h, read-out: INH
[2] = Kinetic solubility of the compound in PBS buffer at pH 7.4 measured by HPLC analysis
MDA-MB-231 [3] = assay: cells; settings: Homo sapiens, MDA-MB-231, 48 h, read-out: Activity
in vivo [4] = settings: female, BALB/c, mouse, ip, 5 mg/kg
[5] = In vivo antitumor activity against human MDA-MB-231 cells xenografted in female nude mouse assessed as tumor growth inhibition at 10 mg/kg, ip administered every other day relative to control; settings: MDA-MB-231, read-out: TGI
cells [6] = settings: Homo sapiens, HCC1806, 48 h
animal or person = settings: Mus musculus, MDA-MB-231, read-out: TGI
HCC1806 [7] = assay: cells; settings: Homo sapiens, HCC1806, 48 h, read-out: Activity
Casein kinase I = assay: Inhibition of CK1 (unknown origin); format: protein assay, Homo sapiens
in vivo [8] = settings: female, BALB/c, mouse, ip, 5 mg/kg; remark: listed apart in the source
in vivo [9] = settings: female, BALB/c, mouse, po, 10 mg/kg
MDA-MB-231 [10] = assay: cells; settings: Homo sapiens, MDA-MB-231, 48 h, read-out: Activity; remark: listed apart in the source
in vivo [11] = settings: female, BALB/c, mouse, po, 10 mg/kg; remark: listed apart in the source
HCC1806 [12] = assay: cells; settings: Homo sapiens, HCC1806, 48 h, read-out: Activity; remark: listed apart in the source
HCC1806 [13] = assay: cells; settings: Homo sapiens, HCC1806, 48 h, read-out: Activity; remark: listed apart in the source
in vivo [14] = settings: female, BALB/c, mouse, po, 10 mg/kg; remark: listed apart in the source
HCC1806 [15] = assay: cells; settings: Homo sapiens, HCC1806, 48 h, read-out: Activity; remark: listed apart in the source
in vivo [16] = settings: female, BALB/c, mouse, iv, 5 mg/kg
HCC1806 [17] = assay: cells; settings: Homo sapiens, HCC1806, 48 h, read-out: Activity; remark: listed apart in the source
MDA-MB-231 [18] = assay: cells; settings: Homo sapiens, MDA-MB-231, 48 h, read-out: Activity; remark: listed apart in the source
MDA-MB-231 [19] = assay: cells; settings: Homo sapiens, MDA-MB-231, 48 h, read-out: Activity; remark: listed apart in the source
MDA-MB-231 [20] = assay: cells; settings: Homo sapiens, MDA-MB-231, 72 h, read-out: INH; remark: listed apart in the source
in vivo [21] = settings: female, BALB/c, mouse, ip, 5 mg/kg; remark: listed apart in the source
MDA-MB-231 [22] = assay: cells; settings: Homo sapiens, MDA-MB-231, 48 h, read-out: Activity; remark: listed apart in the source
cells [23] = settings: Homo sapiens, MDA-MB-231, 48 h

SMILES: Cc1ccc(-n2nc(C(=O)NCCN3CCCC3)c(=O)n(Cc3ccccc3)c2=O)cc1C
- inhibition at 20 µM (MDA-MB-231 [1]): 99.1%
- solubility kinetic [2]: 238 µM (≈ 107 µg/mL)

SMILES: Cc1ccc(-n2nc(C(=O)N3CCCCC3)c(=O)n(Cc3ccccc3)c2=O)cc1C
- viability at 0.2 µM (MDA-MB-231 [3]): 51.7%
- half-life at 24 h (in vivo [4]): 2.1 h
- inhibition in vivo at 10 mg/kg [5]: 59.3%
- DC50 (cells [6]): 0.857 µM
- inhibition in vivo at 5 mg/kg (animal or person): 44.8%
- inhibition at 20 µM (MDA-MB-231 [1]): 90.5%
- viability at 0.1 µM (HCC1806 [7]): 93%
- IC50 (Casein kinase I): > 10 µM
- bioavailability at 24 h (in vivo [8]): 33.4%
- bioavailability at 24 h (in vivo [9]): 1.5%
- viability at 0.05 µM (MDA-MB-231 [10]): 87.9%
- Cmax at 24 h (in vivo [11]): 14.9 ng/mL
- viability at 0.05 µM (HCC1806 [12]): 94.4%
- viability at 0.4 µM (HCC1806 [13]): 89%
- half-life at 24 h (in vivo [14]): 3.4 h
- solubility kinetic [2]: 27 µM (≈ 11.3 µg/mL)
- viability at 0.8 µM (HCC1806 [15]): 87.3%
- Vd at 24 h (in vivo [16]): 49.6 L/kg
- viability at 0.2 µM (HCC1806 [17]): 90.9%
- viability at 0.4 µM (MDA-MB-231 [18]): 33.5%
- viability at 0.8 µM (MDA-MB-231 [19]): 28.3%
- inhibition at 1 µM (MDA-MB-231 [20]): 98.2%
- Cmax at 24 h (in vivo [21]): 194 ng/mL
- viability at 0.1 µM (MDA-MB-231 [22]): 73%
- DC50 (cells [23]): 0.319 µM
